Results taken from US6270979A (priority 1998, dated 2001).

Amino acid sequences for entries named in this document (tags omitted).
UniProt P35372, whole entry, looked up: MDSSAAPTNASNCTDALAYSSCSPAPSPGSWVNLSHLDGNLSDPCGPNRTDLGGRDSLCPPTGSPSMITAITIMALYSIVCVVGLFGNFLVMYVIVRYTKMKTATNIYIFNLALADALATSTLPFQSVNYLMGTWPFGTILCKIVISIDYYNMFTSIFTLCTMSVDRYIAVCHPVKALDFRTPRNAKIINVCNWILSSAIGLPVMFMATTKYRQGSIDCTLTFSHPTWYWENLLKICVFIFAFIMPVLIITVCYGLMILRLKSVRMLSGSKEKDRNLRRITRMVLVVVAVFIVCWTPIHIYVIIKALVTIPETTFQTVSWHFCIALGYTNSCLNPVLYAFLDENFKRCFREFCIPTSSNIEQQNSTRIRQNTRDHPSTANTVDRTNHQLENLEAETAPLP

Biological target: opioid μ receptor (Homo sapiens, UniProt P35372)

## CO[C@]12CC[C@@]3(C[C@@H]1C(C)(C)O)[C@H]1Cc4ccc(O)c5c4[C@@]3(CCN1CC1CC1)[C@H]2O5
Morphine pretreated cells
  classification of opioid drug (agonist / neutral / negative antagonist): negative antagonists
Morphine pretreated, drug-free dependent cells
  effect on cAMP levels / constitutive activity in morphine pretreated cells: increasing cAMP levels in drug-free dependent cells
